PMC7051184, “C9orf72 arginine-rich dipeptide repeat proteins disrupt karyopherin-mediated nuclear import” (eLife, 2020)

Key:
BSA = assay: Bead halo assay, biotinylated BSA-coated beads (non-specific control); settings: AF488-labeled, 200 nM, binding buffer
Experimental: Purified WT importin β (pKW485) diluted to 10 µM in XB was combined with 10-molar excess of Alexa Fluor 647 NHS ester (ThermoFisher), using freshly-prepared 10 mM dye in anhydrous DMSO. After incubation on ice for 2 hr, the sample was dialyzed in PBS and concentrated on 30kD MWCO filter (Millipore Sigma) before storage. A similar protocol was used to label BSA with 10-molar excess Sulfo-NHS-LC-biotin (ThermoFisher), followed by dialysis in PBS.
(§1) The bead halo assay was carried out as described with minor modifications ([Patel and Rexach, 2008]), using […] polystyrene beads coated with neutravidin (for biotinylated proteins) or glutathione (for GST-fusion proteins) (Spherotech, Lake Forest, IL). Beads were coated overnight at 4°C at saturating concentrations per manufacturers’ instructions and rinsed 2x in binding buffer (20 mM HEPES [pH 7.4], 150 mM KOAc, 2 mM Mg(OAc)2, 1 mM DTT, 0.1% Tween-20). Immediately prior to the assay, fluorescent bait proteins and beads were combined with 4x assay buffer (40 mM EDTA, 40 mg/ml BSA, 500 mM NaCl, and 0.2% Tween) to a total of 40 µL per well, in optical glass-bottom 96-well plates (Cellvis, Mountain View, CA). Reactions were allowed to equilibrate at room temperature for a minimum of 30 min prior to imaging at 100x on an LSM800 confocal microscope (Zeiss, Oberkochen, Germany). […]

Nup100(1-307) = tested on: Nup100(1-307); parameters: species or system S. cerevisiae; settings: AF488-labeled, binding buffer
Experimental: (§2) The expression of GST- Nsp1(497-609) in BL21(DE3) cells grown in LB media was induced at OD600nm = 0.4–0.6, followed by incubation at 37°C for 3–5 hr. The GST-tagged S. cerevisiae pGEX-Nup100(1-307), Nup100(1-610), Nup116(348-458) and Nup116(348-458)F > A were expressed in T7 Shuffle cells (NEB) that were grown in Dynamite media ([Taylor et al., 2017]) until OD600nm = 0.9 before induction with IPTG at 37°C for 3 hr. All the GST-tagged Nup fragments were purified using glutathione-sepharose affinity chromatography, as described for the GST-GFP-NLS above, and dialyzed into PBS before storage.
as §1, with “CA).” for “CA). Reactions were allowed to equilibrate at room temperature for a minimum of 30 min prior to imaging at 100x on an LSM800 confocal microscope (Zeiss, Oberkochen, Germany).”

Nup100(1-610) = tested on: Nup100(1-610); parameters: species or system S. cerevisiae; settings: AF488-labeled, binding buffer
Experimental: as §2
as §1, with “CA).” for “CA). Reactions were allowed to equilibrate at room temperature for a minimum of 30 min prior to imaging at 100x on an LSM800 confocal microscope (Zeiss, Oberkochen, Germany).”

RanGAP1 = assay: DPR aggregation assay and western blot, RanGAP1; assay type: biochemical, human; settings: 100 µM 10mer in 2.5 mg/ml HEK lysate, normalized to untreated HEK
Experimental: (§3) Supernatant and pellet fractions (for all 5 DPRs, and control/buffer only) were prepared as in the nuclear transport assays, by adding 100 µM 10mers to 2.5 mg/ml HEK lysate in 100 µL TRB. Supernatants were boiled in Laemmli (BioRad) for 5 min. Pellets were boiled for 15 min followed by sonication in order to fully disperse aggregates for SDS-PAGE. Equal volumes of supernatant and pellet fractions were run on 4–12% Bolt Bis-Tris Plus gels (ThermoFisher), transferred to nitrocellulose membrane using an iBlot2 dry blotting system (ThermoFisher). Protein loading was analyzed by BLOT-Faststain (G-biosciences, St. Louis, MO), according to the manufacterers’ instructions. For immunodetection, membranes were blocked with 5% non-fat milk in TBST and probed by sequential incubation with the primary antibodies as detailed in the table below. Detection was by HRP-conjugated secondary antibodies/chemiluminescence using an ImageQuant LAS 4000 system (GE, Chicago, IL). To permit sequential probing of membranes without stripping, signals were quenched by incubation with prewarmed 30% H20_2 for 20 min ([Sennepin et al., 2009]). Band intensities were measured by ImageQuant software. For pellet vs. supernatant fractions, all were expressed as percent untreated control. For blots in Figure 1E, samples were run on 4–20% SDS PAGE minigels (ThermoFisher) and blotted to PVDF membranes (Immun-Blot PVDF, Bio-Rad) using the Bio-Rad TransBlot Turbo apparatus, and probed as above. The chemiluminescence signal was captured with a Bio-Rad ChemiDoc XRS+ digital imaging system.

Ran = assay: DPR aggregation assay and western blot, Ran; assay type: biochemical, human; settings: for Ran band density, Pellet / Ran band density, Supernatant: 100 µM 10mer in 2.5 mg/ml HEK lysate, normalized to untreated HEK; for Ran band density, % untr control: Fig 5-suppl 3C, normalized to untreated HEK on same membrane;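 for Ran band density, % untr control: RNA rows contain added 20 µg total HEK RNA while no-RNA rows lack it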
Experimental: as §3

Nup133 = assay: DPR aggregation assay and western blot, Nup133; assay type: biochemical, human; settings: 100 µM 10mer in 2.5 mg/ml HEK lysate, normalized to untreated HEK
Experimental: as §3

FUS = assay: DPR aggregation assay and western blot, FUS; assay type: biochemical, human; settings: normalized to untreated HEK cells on the same membrane
Experimental: as §3

hnRNPA1 = assay: DPR aggregation assay and western blot, hnRNPA1; assay type: biochemical, human; settings: normalized to untreated HEK cells on the same membrane
Experimental: as §3

hnRNPA2/B1 = assay: DPR aggregation assay and western blot, hnRNPA2/B1; assay type: biochemical, human; settings: normalized to untreated HEK cells on the same membrane
Experimental: as §3

RPS6 = assay: DPR aggregation assay and western blot, RPS6; assay type: biochemical, human; settings: for Rps6 band density, % untr control: Fig 5-suppl 3C, normalized to untreated HEK on same membrane; for RPS6 band density, % control: normalized to untreated HEK cells on the same membrane;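 for Rps6 band density, % untr control: RNA rows contain added 20 µg total HEK RNA while no-RNA rows lack it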
Experimental: as §3

DDX3X = assay: DPR aggregation assay and western blot, DDX3X; assay type: biochemical, human; settings: normalized to untreated HEK cells on the same membrane
Experimental: as §3

[1] = Pellet, no RNA (Untreated), blot 1
[2] = Pellet, no RNA (Untreated), blot 2
[3] = Supernatant, no RNA (Untreated), blot 1
[4] = Supernatant, no RNA (Untreated), blot 2

How did the “Binding to BSA-coated beads” value (BSA) turn out when `N=C(N)NCCC[C@H](NC(=O)CNC(=O)[C@H](CCCNC(=N)N)NC(=O)CNC(=O)[C@H](CCCNC(=N)N)NC(=O)CNC(=O)[C@H](CCCNC(=N)N)NC(=O)CNC(=O)[C@H](CCCNC(=N)N)NC(=O)CNC(=O)[C@H](CCCNC(=N)N)NC(=O)CNC(=O)[C@H](CCCNC(=N)N)NC(=O)CNC(=O)[C@H](CCCNC(=N)N)NC(=O)CNC(=O)[C@H](CCCNC(=N)N)NC(=O)CNC(=O)[C@H](CCCNC(=N)N)NC(=O)CN)C(=O)O` [GR10] was run?
Its value is “modest non-specific binding”.

What about the “Binding to Nup100 GLFG-domain (halo intensity)” value (Nup100(1-307)) of the same compound?
Its value is “modest selective binding”.

And the “Binding to Nup100 GLFG-domain (halo intensity)” value (Nup100(1-610))?
The value was “modest selective binding”.

And the “RanGAP1 band density, Pellet” value (RanGAP1; Blot 1)?
The value was 1022.6 % control.

And the “RanGAP1 band density, Supernatant” value (RanGAP1; Blot 1)?
The value was 61.0 % control.

What about the “RanGAP1 band density, Pellet” value (RanGAP1; Blot 2) of the same compound?
Its value is 573.7 % control.

And the “RanGAP1 band density, Supernatant” value (RanGAP1; Blot 2)?
Its value is 68.7 % control.

What about the “Ran band density, Pellet” value (Ran; Blot 1) of the same compound?
Its value is 340.6 % control.

What about the “Ran band density, Supernatant” value (Ran; Blot 1) of the same compound?
The value was 119.5 % control.

And the “Ran band density, Pellet” value (Ran; Blot 2)?
The value was 461.6 % control.

What about the “Ran band density, Supernatant” value (Ran; Blot 2) of the same compound?
Its value is 102.8 % control.

What about the “Ran band density, % untr control” value (Ran; Pellet, RNA, blot 1) of the same compound?
Its value is 234.84%.

And the “Ran band density, % untr control” value (Ran; Pellet, RNA, blot 2)?
Its value is 309.78%.

And the “Ran band density, % untr control” value (Ran; [1])?
Its value is 209.34%.

What about the “Ran band density, % untr control” value (Ran; [2]) of the same compound?
The value was 257.02%.

And the “Ran band density, % untr control” value (Ran; Supernatant, RNA, blot 1)?
Its value is 113.99%.

And the “Ran band density, % untr control” value (Ran; Supernatant, RNA, blot 2)?
Its value is 115.12%.

And the “Ran band density, % untr control” value (Ran; [3])?
Its value is 110.37%.

And the “Ran band density, % untr control” value (Ran; [4])?
Its value is 104.48%.

And the “Nup133 band density, Pellet” value (Nup133; Blot 1)?
The value was 281.4 % control.

What about the “Nup133 band density, Supernatant” value (Nup133; Blot 1) of the same compound?
Its value is 45.5 % control.

What about the “Nup133 band density, Pellet” value (Nup133; Blot 2) of the same compound?
The value was 251.6 % control.

What about the “Nup133 band density, Supernatant” value (Nup133; Blot 2) of the same compound?
Its value is 41.4 % control.

What about the “FUS band density, % control” value (FUS; Pellet, Blot 1) of the same compound?
The value was 51.8 % control.

And the “FUS band density, % control” value (FUS; Pellet, Blot 2)?
The value was 25.7 % control.

And the “FUS band density, % control” value (FUS; Supernatant, Blot 1)?
The value was 97.0 % control.

And the “FUS band density, % control” value (FUS; Supernatant, Blot 2)?
Its value is 123.4 % control.

What about the “hnRNPA1 band density, % control” value (hnRNPA1; Pellet, Blot 1) of the same compound?
The value was 289.8 % control.

And the “hnRNPA1 band density, % control” value (hnRNPA1; Pellet, Blot 2)?
The value was 369.6 % control.

And the “hnRNPA1 band density, % control” value (hnRNPA1; Supernatant, Blot 1)?
The value was 84.7 % control.

What about the “hnRNPA1 band density, % control” value (hnRNPA1; Supernatant, Blot 2) of the same compound?
Its value is 67.3 % control.

And the “hnRNPA2/B1 band density, % control” value (hnRNPA2/B1; Pellet, Blot 1)?
Its value is 384.0 % control.

And the “hnRNPA2/B1 band density, % control” value (hnRNPA2/B1; Pellet, Blot 2)?
The value was 231.4 % control.

What about the “hnRNPA2/B1 band density, % control” value (hnRNPA2/B1; Supernatant, Blot 1) of the same compound?
Its value is 98.7 % control.

What about the “hnRNPA2/B1 band density, % control” value (hnRNPA2/B1; Supernatant, Blot 2) of the same compound?
Its value is 57.3 % control.

And the “Rps6 band density, % untr control” value (RPS6; Pellet, RNA, blot 1)?
The value was 433.20%.

And the “Rps6 band density, % untr control” value (RPS6; Pellet, RNA, blot 2)?
Its value is 302.43%.

What about the “Rps6 band density, % untr control” value (RPS6; [1]) of the same compound?
The value was 423.46%.

What about the “Rps6 band density, % untr control” value (RPS6; [2]) of the same compound?
Its value is 341.30%.

And the “Rps6 band density, % untr control” value (RPS6; Supernatant, RNA, blot 1)?
The value was 7.91%.

What about the “Rps6 band density, % untr control” value (RPS6; Supernatant, RNA, blot 2) of the same compound?
Its value is 9.81%.

And the “Rps6 band density, % untr control” value (RPS6; [3])?
The value was 2.94%.

What about the “Rps6 band density, % untr control” value (RPS6; [4]) of the same compound?
Its value is 3.12%.

What about the “RPS6 band density, % control” value (RPS6; Pellet, Blot 1) of the same compound?
Its value is 304.8 % control.

And the “RPS6 band density, % control” value (RPS6; Pellet, Blot 2)?
Its value is 380.9 % control.

And the “RPS6 band density, % control” value (RPS6; Supernatant, Blot 1)?
The value was 9.4 % control.

And the “RPS6 band density, % control” value (RPS6; Supernatant, Blot 2)?
The value was 10.9 % control.

And the “DDX3X band density, % control” value (DDX3X; Pellet, Blot 1)?
Its value is 116.9 % control.

What about the “DDX3X band density, % control” value (DDX3X; Pellet, Blot 2) of the same compound?
Its value is 149.1 % control.

And the “DDX3X band density, % control” value (DDX3X; Supernatant, Blot 1)?
The value was 20.5 % control.

What about the “DDX3X band density, % control” value (DDX3X; Supernatant, Blot 2) of the same compound?
The value was 11.8 % control.
